Biological target: T1, α2M–mCherry–sfGFP–His (human (cDNA from HepG2), UniProt P01023 24-1474)
T1 construct: alpha 2-macroglobulin (α2M), cDNA amplified from HepG2 total cDNA; Tetramer with an intact thiol ester by native-PAGE and heat fragmentation; also called α2M–RG; α2M–RFP–GFP–His; source: purified from conditioned medium (Ni–NTA); not shown: mCherry, C-terminal, kept; sfGFP, C-terminal, kept
T1 sequence (looked up): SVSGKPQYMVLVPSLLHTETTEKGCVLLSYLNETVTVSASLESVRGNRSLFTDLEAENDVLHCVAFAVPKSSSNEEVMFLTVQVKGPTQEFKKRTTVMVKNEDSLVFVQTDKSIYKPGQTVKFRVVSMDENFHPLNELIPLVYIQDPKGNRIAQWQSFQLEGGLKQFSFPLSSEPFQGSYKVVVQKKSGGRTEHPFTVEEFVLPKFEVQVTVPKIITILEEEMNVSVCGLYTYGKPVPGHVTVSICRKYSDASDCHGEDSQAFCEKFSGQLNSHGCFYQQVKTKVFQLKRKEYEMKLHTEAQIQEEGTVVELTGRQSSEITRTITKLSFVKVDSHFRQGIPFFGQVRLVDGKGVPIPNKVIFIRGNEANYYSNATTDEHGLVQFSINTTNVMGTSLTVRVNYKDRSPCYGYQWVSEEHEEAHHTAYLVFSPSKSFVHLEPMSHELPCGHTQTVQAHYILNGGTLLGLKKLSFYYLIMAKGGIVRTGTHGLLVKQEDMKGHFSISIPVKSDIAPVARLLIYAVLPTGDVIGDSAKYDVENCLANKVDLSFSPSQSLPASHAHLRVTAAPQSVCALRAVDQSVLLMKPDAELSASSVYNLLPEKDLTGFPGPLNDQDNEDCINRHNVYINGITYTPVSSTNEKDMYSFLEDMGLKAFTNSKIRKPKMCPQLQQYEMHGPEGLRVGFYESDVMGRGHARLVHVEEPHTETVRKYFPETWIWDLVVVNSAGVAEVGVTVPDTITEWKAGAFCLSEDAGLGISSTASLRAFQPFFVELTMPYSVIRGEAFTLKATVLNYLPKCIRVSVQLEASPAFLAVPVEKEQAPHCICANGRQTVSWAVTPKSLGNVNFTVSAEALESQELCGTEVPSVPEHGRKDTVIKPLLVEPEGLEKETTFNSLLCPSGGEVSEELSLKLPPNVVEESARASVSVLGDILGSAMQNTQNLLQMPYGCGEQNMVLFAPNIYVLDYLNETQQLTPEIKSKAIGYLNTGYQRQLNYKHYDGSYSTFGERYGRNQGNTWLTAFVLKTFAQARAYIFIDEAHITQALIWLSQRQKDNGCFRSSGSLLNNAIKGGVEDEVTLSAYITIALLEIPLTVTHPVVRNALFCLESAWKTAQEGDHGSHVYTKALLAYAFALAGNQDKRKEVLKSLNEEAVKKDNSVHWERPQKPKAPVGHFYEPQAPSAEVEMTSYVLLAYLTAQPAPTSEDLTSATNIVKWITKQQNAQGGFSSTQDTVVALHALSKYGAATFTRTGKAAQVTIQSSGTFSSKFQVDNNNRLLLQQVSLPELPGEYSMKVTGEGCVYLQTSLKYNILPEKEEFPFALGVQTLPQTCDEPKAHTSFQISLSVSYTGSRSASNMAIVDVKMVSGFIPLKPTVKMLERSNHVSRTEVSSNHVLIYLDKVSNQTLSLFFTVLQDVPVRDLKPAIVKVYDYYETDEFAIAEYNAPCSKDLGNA
Assay: co-IP; purified α2M–RG (0.1 μM) mixed with purified substrate, pre-incubated at 50 °C (heat stress) or 4 °C for 1 h; anti-GFP (GFP-nanobody) sepharose 2 h at 4 °C, washed four times with PBS
Conditions: both partners purified

binding result: binds
B1: His–ALFA–3C–PSMD5 (natural protein, human, UniProt Q16401 1-504, looked up)
chain: MAAQALALLREVARLEAPLEELRALHSVLQAVPLNELRQQAAELRLGPLFSLLNENHREKTTLCVSILERLLQAMEPVHVARNLRVDLQRGLIHPDDSVKILTLSQIGRIVENSDAVTEILNNAELLKQIVYCIGGENLSVAKAAIKSLSRISLTQAGLEALFESNLLDDLKSVMKTNDIVRYRVYELIIEISSVSPESLNYCTTSGLVTQLLRELTGEDVLVRATCIEMVTSLAYTHHGRQYLAQEGVIDQISNIIVGADSDPFSSFYLPGFVKFFGNLAVMDSPQQICERYPIFVEKVFEMIESQDPTMIGVAVDTVGILGSNVEGKQVLQKTGTRFERLLMRIGHQSKNAPVELKIRCLDAISSLLYLPPEQQTDDLLRMTESWFSSLSRDPLELFRGISSQPFPELHCAALKVFTAIANQPWAQKLMFNSPGFVEYVVDRSVEHDKASKDAKYELVKALANSKTIAEIFGNPNYLRLRTYLSEGPYYVKPVSTTAVEGAE
notes: 26S proteasome non-ATPase regulatory subunit 5 (PSMD5), cDNA amplified from HeLa total cDNA; A 3C protease site stands between the tags and the protein; no cleavage is told; Heat-stressed at 50 °C for 1 h together with the chaperone; also called recombinant PSMD5; source: E. coli BL21(DE3) LOBSTR, purified (HisPur Cobalt Resin)
